Test system: λ-DNA
Experiment: DNA melting studies (Example 2)
Type: physicochemical, lambda phage
Conditions: stoichiometric KWK 64 μM, heating up to 95° C.
Method: DNA Melting Studies. DNA melting studies on native DNA and DNA complexes in 10 mM sodium cocadylate buffer were performed on a Carey 100 UV-Vis. DNA absorbance at 260 nm was monitored with temperature, slowly increasing from 50° C. to 95° C. at 1° C./min heating rate. For DNA-KWK, DNA-PP4, DNA-PP8 complexes, weak background absorbances from KWK, PP4 and PP8 were directly subtracted from the measurements, by using the corresponding KWK, PP4 and PP8 in 10 mM sodium cocadylate buffer as reference cells.
The stability of DNA-KWK, DNA-PP4 and DNA-PP8 complexes was investigated by DNA melting studies. Breakage of double-stranded DNA into single strands was monitored by an increase in the DNA absorbance at 260 nm, due to the disruption of hydrogen bonds between base pairs (i.e. hyperchromic effect). For native λ-DNA, Tm, the temperature at which 50% of ds-DNA dissociates, was determined to be 70° C. (FIG. 9, curve a). For melting studies on DNA-KWK, DNA-PP4 and DNA-PP8 complexes, weak background absorbances from the corresponding KWK, PP4, PP8 at 260 nm have been subtracted to achieve accurate DNA absorbance measurements. […] (FIG. 9, curve c). […] A much slower ds-DNA dissociation curve was observed (FIG. 9, curve d).

For lysine-tryptophan-lysine [KWK], the “stabilization of ds-DNA in melting study” value was “only slightly shifted”.

From US20100311821A1, “Synthetic vector” (priority 2009, published 2010)
